For one molecule, AUC0-8h and Cmax results are on record in publication PMC3674958 (Investigational new drugs, 2012).

For the data set the following is noted: human, in vivo, 400 mg.

Structures are written as SMILES.

In the case of `CNC(=O)c1cc(Oc2ccc(NC(=O)Nc3ccc(Cl)c(C(F)(F)F)c3)cc2)ccn1` [Sorafenib], the AUC0-8h is 4900 ± 2300 ng·h/mL and the Cmax worked out at 1190 ± 540 ng/mL.

The Cmax is the highest concentration seen after dosing.
